Assay results: PMC8842224 (2022)

By UniProt entry, the sequences of proteins in these tests, tags left out.
UniProt P0DMS8, whole entry: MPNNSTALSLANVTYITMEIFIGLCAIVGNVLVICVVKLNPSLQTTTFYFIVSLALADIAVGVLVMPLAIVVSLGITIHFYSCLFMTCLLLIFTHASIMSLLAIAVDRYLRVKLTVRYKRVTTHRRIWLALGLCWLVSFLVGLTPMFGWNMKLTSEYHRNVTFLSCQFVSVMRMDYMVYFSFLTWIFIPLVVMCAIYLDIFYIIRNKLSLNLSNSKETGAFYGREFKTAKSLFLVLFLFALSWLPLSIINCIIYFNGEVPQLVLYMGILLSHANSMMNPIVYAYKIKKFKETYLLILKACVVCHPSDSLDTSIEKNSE

Key:
[1] = target: T1, human A2BAR (Homo sapiens, UniProt P29275); test: biochemical; settings: read-out: hA2B percentage displacement of specific binding at 1 μM
T1 sequence (P29275 1-332): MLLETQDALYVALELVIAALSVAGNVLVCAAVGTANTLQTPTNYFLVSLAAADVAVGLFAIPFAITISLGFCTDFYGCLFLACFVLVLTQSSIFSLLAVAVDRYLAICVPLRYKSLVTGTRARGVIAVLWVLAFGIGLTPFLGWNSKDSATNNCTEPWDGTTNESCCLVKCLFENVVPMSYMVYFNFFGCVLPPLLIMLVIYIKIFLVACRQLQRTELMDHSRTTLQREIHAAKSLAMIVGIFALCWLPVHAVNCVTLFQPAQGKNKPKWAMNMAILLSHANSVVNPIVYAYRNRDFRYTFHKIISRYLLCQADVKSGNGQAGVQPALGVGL

[2] = target: human A3AR (Homo sapiens, UniProt P0DMS8); test: biochemical; settings: 3 h, read-out: hA3 percentage displacement of specific binding at 1 μM
[3] = target: human A2AAR (Homo sapiens, UniProt P29274); settings: [3H]ZM241385, human HeLa cells, n = 2

| Compound | inhibition at 1 µM [1] [%] | inhibition at 1 µM [2] [%] | hA2A percentage displacement of specific binding at 1 μM [3] [%] |
| --- | --- | --- | --- |
| CCNc1nc(-c2ccccc2)c(C#N)c(-c2cccc(Cl)c2)n1 [19m] | 33 | 2 |  |
| N#Cc1c(-c2ccccc2)nc(N)nc1-c1cccc(O)c1 [18h] |  | 9 |  |
| COc1ccc(-c2nc(Nc3ccccc3)nc(-c3ccccc3)c2C#N)cc1 [19ac] |  | 31 |  |
| N#Cc1c(-c2ccccc2)nc(Nc2ccccc2)nc1-c1ccc(F)cc1F [19ag] | 2 | 29 | 2 |
| N#Cc1c(-c2ccccc2)nc(Nc2ccccc2)nc1-c1ccc2c(c1)OCO2 [19aq] |  | 25 |  |
| N#Cc1c(-c2ccccc2)nc(Nc2ccccc2)nc1-c1cc(F)cc(F)c1 [19ai] | 2 | 1 |  |
| COc1cccc(-c2nc(N)nc(-c3ccccc3)c2C#N)c1 [18g] |  | 12 |  |
| Cc1ccc(-c2nc(N)nc(-c3ccccc3)c2C#N)cc1 [18n] | 28 | 16 |  |
| N#Cc1c(-c2ccccc2)nc(Nc2ccccc2)nc1-c1cccnc1 [19bf] |  | 17 |  |
| CCNc1nc(-c2ccccc2)c(C#N)c(-c2ccccc2)n1 [19b] | 17 | 16 |  |
| N#Cc1c(-c2ccccc2)nc(Nc2ccccc2)nc1-c1ccncc1 [19bc] | 18 | 12 | 17 |
| CNc1nc(-c2ccccc2)c(C#N)c(-c2ccccc2F)n1 [19d] |  | 3 | 15 |
| N#Cc1c(-c2cccc(Cl)c2)nc(N)nc1-c1ccc2c(c1)OCO2 [18aj] |  | 26 |  |
| N#Cc1c(-c2ccccc2)nc(N)nc1-c1ccc2ccccc2c1 [18af] | 3 | 8 |  |
| CNc1nc(-c2ccccc2)c(C#N)c(-c2ccncc2)n1 [19bb] | 12 | 1 | 5 |
| CN(C)c1nc(-c2ccccc2)c(C#N)c(-c2cccc(Cl)c2)n1 [20b] | 1 |  | 2 |
| N#Cc1c(-c2ccccc2)nc(N)nc1C1CCCCC1 [18ae] | 5 | 2 | 10 |
| N#Cc1c(-c2ccccc2)nc(N)nc1-c1cccc(Cl)c1 [18f] |  | 1 |  |
| N#Cc1c(-c2ccccc2)nc(Nc2ccccc2)nc1-c1ccoc1 [19ay] | 14 | 2 |  |
| COc1cccc(-c2nc(Nc3ccccc3)nc(-c3ccccc3)c2C#N)c1 [19r] | 15 | 9 |  |
| CNc1nc(-c2ccccc2)c(C#N)c(C2CCCCC2)n1 [19bg] | 1 | 11 |  |
| COc1ccc(-c2nc(N)nc(-c3ccccc3)c2C#N)c(OC)c1 [18q] | 13 | 1 |  |
| N#Cc1c(-c2ccccc2)nc(Nc2ccccc2)nc1-c1ccccc1F [19e] |  | 2 |  |
| N#Cc1c(-c2ccccc2)nc(N)nc1-c1cccnc1 [18ac] | 20 | 1 |  |
| N#Cc1c(-c2ccccc2)nc(N)nc1-c1ccc(F)cc1F [18o] | 7 | 12 |  |

| Compound | inhibition at 1 µM [1] [%] | inhibition at 1 µM [2] [%] | hA2A percentage displacement of specific binding at 1 μM [3] [%] |
| --- | --- | --- | --- |
| CNc1nc(-c2ccccc2)c(C#N)c(-c2cc(OC)cc(OC)c2)n1 [19am] |  | 2 |  |
| N#Cc1c(-c2ccccc2)nc(Nc2ccccc2)nc1-c1cccc(Cl)c1 [19n] | 12 | 15 |  |
| COc1cc(-c2nc(N)nc(-c3ccccc3)c2C#N)cc(OC)c1OC [18v] | 3 | 13 |  |
| N#Cc1c(-c2ccccc2)nc(N)nc1-c1ccccc1 [18a] | 33 | 1 |  |
| CCNc1nc(-c2ccccc2)c(C#N)c(-c2ccc3c(c2)OCO3)n1 [19ap] |  | 1 |  |
| CNc1nc(-c2ccccc2)c(C#N)c(-c2cccc(O)c2)n1 [19o] | 29 | 9 |  |
| N#Cc1c(-c2cccc(Cl)c2)nc(N)nc1-c1cccc(Cl)c1 [18ah] |  | 1 |  |
| N#Cc1c(-c2ccccc2)nc(Nc2ccccc2)nc1-c1ccc(F)cc1 [19w] |  | 9 | 10 |
| N#Cc1c(-c2ccccc2)nc(N)nc1-c1ccco1 [18x] |  | 9 |  |
| N#Cc1c(-c2ccc(F)cc2)nc(N)nc1-c1ccc2c(c1)OCO2 [18ak] | 2 | 22 |  |
| N#Cc1c(-c2ccccc2)nc(N)nc1-c1ccc(Br)cc1 [18k] | 8 | 2 |  |
| CNc1nc(-c2ccccc2)c(C#N)c(-c2ccccc2OC)n1 [19h] | 9 | 1 |  |
| N#Cc1c(-c2ccccc2)nc(Nc2ccccc2)nc1-c1ccsc1 [19ba] | 17 | 22 |  |
| CNc1nc(-c2ccccc2)c(C#N)c(-c2ccco2)n1 [19at] | 51 | 4 |  |
| N#Cc1cccc(-c2nc(N)nc(-c3ccccc3)c2C#N)c1 [18i] | 19 | 1 |  |
| N#Cc1c(-c2ccccc2)nc(N)nc1-c1ccncc1 [18ab] | 1 | 12 |  |
| COc1ccc(-c2nc(N)nc(-c3ccccc3)c2C#N)cc1 [18l] | 8 | 11 |  |
| N#Cc1c(-c2ccccc2)nc(N)nc1-c1ccoc1 [18z] | 37 | 3 |  |
| Cc1ccc(-c2nc(Nc3ccccc3)nc(-c3ccccc3)c2C#N)cc1 [19ae] | 4 | 1 |  |
| COc1cc(-c2nc(Nc3ccccc3)nc(-c3ccccc3)c2C#N)cc(OC)c1OC [19as] | 1 | 20 |  |
| N#Cc1c(-c2cccc(Cl)c2)nc(N)nc1-c1cc(Cl)cc(Cl)c1 [18ai] | 9 | 2 |  |
| N#Cc1c(-c2ccccc2)nc(Nc2ccccc2)nc1-c1cc(Cl)cc(Cl)c1 [19al] | 4 | 1 |  |
| N#Cc1c(-c2ccccc2)nc(N)nc1-c1cc(Cl)cc(Cl)c1 [18s] | 1 | 10 |  |
| N#Cc1c(-c2ccccc2)nc(N)nc1-c1c(F)cc(F)cc1F [18w] | 2 | 19 |  |
| N#Cc1c(-c2ccccc2)nc(N)nc1-c1cccc(F)c1 [18e] |  | 2 |  |

| Compound | inhibition at 1 µM [1] [%] | inhibition at 1 µM [2] [%] | hA2A percentage displacement of specific binding at 1 μM [3] [%] |
| --- | --- | --- | --- |
| CCNc1nc(-c2ccccc2)c(C#N)c(-c2cccnc2)n1 [19be] |  | 2 |  |
| CNc1nc(-c2ccccc2)c(C#N)c(-c2cc(OC)c(OC)c(OC)c2)n1 [19ar] | 1 | 15 |  |
| N#Cc1c(-c2ccccc2)nc(Nc2ccccc2)nc1-c1cccs1 [19aw] | 1 | 3 |  |
| N#Cc1c(-c2ccccc2)nc(Nc2ccccc2)nc1-c1ccco1 [19au] |  | 4 |  |
| CNc1nc(-c2ccccc2)c(C#N)c(-c2cccc(F)c2)n1 [19j] |  | 1 | 11 |
| N#Cc1c(-c2ccccc2)nc(N)nc1-c1ccc(F)cc1 [18j] | 7 | 10 |  |
| N#Cc1cccc(-c2nc(Nc3ccccc3)nc(-c3ccccc3)c2C#N)c1 [19u] |  | 2 | 19 |
| N#Cc1c(-c2ccccc2)nc(N)nc1-c1ccccc1F [18b] | 34 | 8 |  |
| CNc1nc(-c2ccccc2)c(C#N)c(-c2ccccc2)n1 [19a] | 14 | 2 |  |
| CNc1nc(-c2ccccc2)c(C#N)c(-c2cccc(OC)c2)n1 [19q] | 31 | 3 |  |
| N#Cc1c(-c2ccccc2)nc(N)nc1-c1cccs1 [18y] |  | 41 |  |
| COc1cc(OC)cc(-c2nc(Nc3ccccc3)nc(-c3ccccc3)c2C#N)c1 [19an] |  | 1 |  |
| N#Cc1c(-c2ccccc2)nc(N)nc1-c1ccc(-c2ccccc2)cc1 [18ag] | 1 |  | 16 |
| CCNc1nc(-c2ccccc2)c(C#N)c(-c2cccc(C#N)c2)n1 [19t] |  | 1 |  |
| N#Cc1c(-c2ccccc2)nc(N)nc1-c1ccc(O)cc1 [18m] | 14 | 18 |  |
| N#Cc1c(-c2ccccc2)nc(N)nc1-c1ccsc1 [18aa] | 40 | 1 |  |
| N#Cc1c(-c2ccccc2)nc(Nc2ccccc2)nc1-c1cccc(F)c1 [19k] |  | 9 | 12 |
| COc1ccccc1-c1nc(N)nc(-c2ccccc2)c1C#N [18d] | 14 | 8 |  |
| COc1ccc(-c2nc(Nc3ccccc3)nc(-c3ccc(OC)cc3)c2C#N)cc1 [19bn] | 2 | 1 |  |
| CNc1nc(-c2ccccc2)c(C#N)c(-c2ccc(C)cc2)n1 [19ad] |  | 7 | 11 |
| CNc1nc(-c2ccccc2)c(C#N)c(-c2cccc(C#N)c2)n1 [19s] |  | 1 |  |
| N#Cc1c(-c2ccccc2)nc(Nc2ccccc2)nc1-c1ccccc1 [19c] | 34 | 4 |  |
| COc1cc(OC)cc(-c2nc(N)nc(-c3ccccc3)c2C#N)c1 [18t] |  | 3 |  |
